The record followed here is patent US20160139118.

The target of this data set is Amyloid Beta-Protein (1-42), P05067.

B1: Complement factor I, purified human serum protein (Complement Technology) (protein)
chain: KVTYTSQEDLVEKKCLAKKYTHLSCDKVFCQPWQRCIEGTCVCKLPYQCPKNGTAVCATNRRSFPTYCQQKSLECLHPGTKFLNNGTCTAEGKFSVSLKHGNTDSEGIVEVKLVDQDKTMFICKSSWSMREANVACLDLGFQQGADTQRRFKLSDLSINSTECLHVHCRGLETSLAECTFTKRRTMGYQDFADVVCYTQKADSPMDDFFQCVNGKYISQMKACDGINDCGDQSDELCCKACQGKGFHCKSGVCIPSQYQCNGEVDCITGEDEVGCAGFASVTQEETEILTADMDAERRRIKSLLPKLSCGVKNRMHIRRKRIVGGKRAQLGDLPWQVAIKDASGITCGGIYIGGCWILTAAHCLRASKTHRYQIWTTVVDWIHPDLKRIVIEYVDRIIFHENYNAGTYQNDIALIEMKKDGNKKDCELPRSIPACVPWSPYLFQPNDTCIVSGWGREKDNERVFSLQWGEVKLISNCSKFYGNRFYEKEMECAGTYDGSIDACKGDSGGPLVCMDANNVTYVWGVVSWGENCGKPEFPGVYTKVANYFDWISYHVGRPFISQYNV
Take B1: the “CFI needed to cleave 50% of the available C3b after preincubation with 200 µM BAM1-42 (re-analysis, 4-parameter logistic)” value is “after preincubation with BAM1-42, approximately 3200 ng/ml CFI equivalent were needed to achieve the same rate of cleavage”.
